These results are taken from patent US20160016929A1, “PRO-DRUG COMPOUNDS” (PROXIMAGEN LIMITED, priority 2013, published 2016).

The nature of this data set: Solubility in aqueous solutions (Table 3). To be noted: pH 5.5.

Molecules are shown by their SMILES.

`CC(=O)c1ccc2c(c1)[C@H](NC(=O)c1ccc(F)c(Cl)c1)[C@H](OC(=O)OC[C@H](N)C(=O)O)C(C)(C)O2.Cl` [Example 5, (2S)-3-[({[(3S,4S)-6-Acetyl-4-[(3-chloro-4-fluorobenzene)amido]-2,2-dimethyl-3,4-dihydro-2H-1-benzopyran-3-yl]oxy}carbonyl)oxy]-2-aminopropanoic acid hydrochloride]: the Solubility (usually the concentration that dissolves in the medium under given conditions) is 2 mg/mL (pH 5.5).
